# Reference: US9205121B2, “Echinacea formulation” (Integria Healthcare (Australia) PTY LTD, priority 2004, dated 2015)
# System: Caco-2 cell monolayers
# Conditions: observed by the present inventors
# Text: Such monolayers are used to model the absorption of compounds across the intestinal barrier.
substance,measurement,value
echinacoside,passage (permeability) across Caco-2 cell monolayers,very poor passage
